Source: patent US20010028878A1, “In vitro maturation of human oocytes in one day” (priority 1998, published 2001)

Tested on: immature human oocytes
Assay: In vitro maturation of immature human oocytes in IVM medium with lowered HSA content, pregnancy outcome
Format: cell-based
Conditions: content of HSA in the medium lowered from 5% to 0.5%; preliminary results
Protocol: All manipulations are carried out at 37° C. Follicular aspirates are filtered (Falcon 1060) to remove erythrocytes and small cellular debris. The retained cells are resuspended in equilibrated BBEM (Medi-Cult, Denmark) with bicarbonate and HEPEs buffers and then oocytes are isolated under a stereomicroscope and washed twice in BBEM (pH 7.2-7.4, mosmol/kg: 285±8, Modified EBS with lactate, MEM non essential amino acids, 2.5 mM HEPES, 0.1 mM Taurine, 200 mM Ultra-glutamine, 0.2 mM sodium pyruvate, 0.5 mM d-glucose, 0.8 mM MgSo4 anhydrous, 3.6 mM Ca-lactate, 1 mM NaH2PO4, 5.4 mM K2SO4, 110 mM NaCl, 1 ml/l SSR4xb (Medi-Cult, Denmark)). Immature oocytes are incubated in BBEM in 5% CO2 and air at 37° C. for 2 h before being transferred into IVM medium. […]
Oocytes are cultured singly in 25 μL drops of IVM medium under paraffin oil at 37° C. in 5% CO2 and humidified air. […] Images are recorded at approximately 24 h and again at either 36 or 48 h of culture, and the number of cells in MF-II are counted.
Oocytes are denuded with hyaluronidase (IVF Science, Sweden) and mechanical pipetting. […] The suitable embryos are scored on a scale from 1 (best) to 4 (worst) prior to replacement.

Human Serum Albumin [Human Serum Albumin (HSA)]
effect on pregnancy rates: no effect
